Laboratory results reported in ChEMBL document CHEMBL5523728, “Fragment-Based Discovery of a Series of Allosteric-Binding Site Modulators of β-Glucocerebrosidase” (J Med Chem, 2024).
Calls of active or inactive are those of the source. No cut-off for these calls is given here.

Experiments:
[1] = molecular target: T1, Lysosomal acid glucosylceramidase (Homo sapiens) (UniProt P04062); experiment: Positive allosteric modulation of GCase in human Fibroblast cells using GBA1-FQ2 as substrate at 50 uM preincubated for 24 hrs followed by substrate addition and measured after 3 hrs by Hoechst 33342 staining based imaging analysis relative to control; assay type: cell-based; conditions: filed as positive allosteric modulator, time 27.0 hrs
T1 sequence (whole entry): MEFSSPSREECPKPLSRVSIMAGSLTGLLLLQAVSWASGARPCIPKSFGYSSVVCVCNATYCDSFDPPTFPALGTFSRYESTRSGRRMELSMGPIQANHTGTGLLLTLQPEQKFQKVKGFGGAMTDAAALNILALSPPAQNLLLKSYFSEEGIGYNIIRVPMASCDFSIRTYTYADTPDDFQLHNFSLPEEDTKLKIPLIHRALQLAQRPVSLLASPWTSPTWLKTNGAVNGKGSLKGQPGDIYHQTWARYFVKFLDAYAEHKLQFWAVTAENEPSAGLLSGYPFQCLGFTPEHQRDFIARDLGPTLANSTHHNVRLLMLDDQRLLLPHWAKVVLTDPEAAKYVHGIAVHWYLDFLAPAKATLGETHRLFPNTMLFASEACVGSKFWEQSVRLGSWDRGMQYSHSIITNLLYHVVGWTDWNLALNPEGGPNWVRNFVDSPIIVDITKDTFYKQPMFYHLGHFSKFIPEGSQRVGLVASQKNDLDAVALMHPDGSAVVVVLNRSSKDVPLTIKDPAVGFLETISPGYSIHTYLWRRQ

[2] = molecular target: T1, Lysosomal acid glucosylceramidase (Homo sapiens); conditions: Sf9, filed as positive allosteric modulator, dose 5-50 µM, time 1.0 hrs

SMILES | Emax [1] [%] | Activity [2]
CCCOc1cc(F)cc(S(=O)(=O)N(C)C[C@@H](N)c2cccc(N(C)C)c2)c1 | 166 | 
C=C(C)c1cccc([C@@H](N)CN(C)S(=O)(=O)c2cc(F)cc(F)c2)c1 |  | Active
